Assay results from PubChem BioAssay AID686964 (The Scripps Research Institute Molecular Screening Center, 2013).
This is a selection; strong and weak results do not stand in their true shares. Activity calls are given as the source filed them. Rule as the data show it: active = inhibition above about 13%; inactive = the rest.

Protein sequences, listed by entry. Tags and fused reporters are not part of them.
UniProt Q9UBB5, whole entry: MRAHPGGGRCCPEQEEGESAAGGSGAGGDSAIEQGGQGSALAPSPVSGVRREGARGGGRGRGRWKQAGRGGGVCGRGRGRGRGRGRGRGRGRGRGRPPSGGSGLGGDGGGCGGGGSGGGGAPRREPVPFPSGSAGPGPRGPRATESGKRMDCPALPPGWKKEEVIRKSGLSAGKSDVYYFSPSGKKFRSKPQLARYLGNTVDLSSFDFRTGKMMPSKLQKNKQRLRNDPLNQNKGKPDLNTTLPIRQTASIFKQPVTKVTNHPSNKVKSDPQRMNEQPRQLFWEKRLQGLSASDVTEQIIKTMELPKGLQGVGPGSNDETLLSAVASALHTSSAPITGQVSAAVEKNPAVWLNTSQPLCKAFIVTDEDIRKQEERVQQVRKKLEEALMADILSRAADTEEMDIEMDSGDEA

target: Methyl-CpG-binding domain protein 2 (Homo sapiens) (UniProt Q9UBB5); experiment: inhibitors of MBD2 binding to methylated DNA, primary screen, biochemical, TR-FRET, DNA-binding domain, human (AID 686964); conditions: MBD2 binding to methylated oligonucleotide, at 4.4 µM, active compounds read high

Row | SMILES | inhibition
1 | O=C(NCC1(N2CCCCC2)CCCCC1)c1ccc(=O)[nH]c1 | inactive: 1.53%
2 | O=C(NCC1(N2CCCCC2)CCCCC1)c1cccs1 | inactive: -4.12%
3 | CCCCn1nnnc1C(CC)N1CCC(n2c(=O)[nH]c3ccccc32)CC1 (stereo not given) | inactive: -2.17%
4 | CCCCn1nnnc1C(c1cccs1)N1CCC(n2c(=O)[nH]c3ccccc32)CC1 (stereo not given) | inactive: -0.72%
5 | COc1ccc(C(=O)NCC2(N3CCCCC3)CCCCC2)cc1 | inactive: 2.1%
6 | CC(C)(C)OC(=O)N1CCC(N(C(=O)c2ccccc2)c2ccc(F)cc2)CC1 | inactive: -0.14%
7 | COc1ccc(C(=O)NCC2(N3CCCCC3)CCCCC2)c(OC)c1OC | inactive: 1.04%
8 | CCC(c1nnnn1C1CCCC1)N1CCC(n2c(=O)[nH]c3ccccc32)CC1 (stereo not given) | inactive: 1%
9 | CSc1ccccc1C(=O)NCC1(N2CCCCC2)CCCCC1 | inactive: -1.98%
10 | Cc1cccc(NC2(C#N)CCN(Cc3ccccc3)CC2)c1 | inactive: 4.55%
11 | O=c1[nH]c2ccccc2n1C1CCN(C(c2ccccc2)c2nnnn2C2CCCCC2)CC1 (stereo not given) | inactive: 7.67%
12 | O=c1[nH]c2ccccc2n1C1CCN(C(c2cccc3ccccc23)c2nnnn2C2CCCC2)CC1 (stereo not given) | inactive: -1.26%
13 | CCOC(=O)N1CCC(Nc2cccc(C)c2)CC1 | inactive: 5.85%
14 | COc1cc(C(=O)NCC2(N(C)C)CCCCC2)ccc1OC(F)F | inactive: 1.24%
15 | CCOc1ccc(C)cc1CN(CCCl)CCCl | inactive: -1.03%
16 | CC(C)(C)n1nnnc1C(c1ccccc1)N1CCC(n2c(=O)[nH]c3ccccc32)CC1 (stereo not given) | inactive: 2.35%
17 | O=C1CCN(Cc2ccccc2)CC1 | inactive: 2.32%
18 | CCCCOc1ccc(C(=O)NCC2(N3CCOCC3)CCCCC2)cc1 | inactive: 1.27%
19 | O=P1(N(CCCl)CCCl)SCCCS1 | inactive: -1.29%
20 | CCCCn1nnnc1C(c1cc2ccccc2o1)N1CCC(n2c(=O)[nH]c3ccccc32)CC1 (stereo not given) | inactive: 1.41%
21 | O=C(NCC1(N2CCCCC2)CCCCC1)c1ccc(F)cc1 | inactive: -2.45%
22 | CCOC(=O)N1CCC(Nc2ccc(F)cc2)CC1 | inactive: -8.74%
23 | COc1ccc(NC2CCN(CCc3ccccc3)CC2)c(OC)c1 | inactive: 4.33%
24 | O=C(NCC1(N2CCCCC2)CCCCC1)c1cccc(C(F)(F)F)c1 | inactive: 4.01%
25 | CC(C)c1ccc(C(=O)NCC2(N3CCOCC3)CCCCC2)cc1 | inactive: 3.86%

Row | SMILES | inhibition
26 | COc1ccc(NC2CCN(C(=O)OC(C)(C)C)CC2)cc1 | inactive: -3.23%
27 | CN1CCN(CCOC(=O)C(O)(c2ccccc2)c2ccccc2)CC1 | inactive: -2.56%
28 | CCCCn1nnnc1C(c1cccc2ccccc12)N1CCC(n2c(=O)[nH]c3ccccc32)CC1 (stereo not given) | inactive: -5.19%
29 | O=C(NCC1(N2CCOCC2)CCCCC1)c1cc(=O)[nH]c2ccccc12 | inactive: -1.8%
30 | COc1cc(C(=O)NCC2(N3CCCCC3)CCCCC2)ccc1OC(F)F | inactive: -5.04%
31 | CC(C)(C)n1nnnc1C(c1ccccc1OC(F)(F)F)N1CCC(n2c(=O)[nH]c3ccccc32)CC1 (stereo not given) | inactive: -6.47%
32 | O=C(NCC1(N2CCCCC2)CCCCC1)c1ccc(OC(F)F)cc1 | inactive: -0.54%
33 | CSc1ccc(C(=O)NCC2(N3CCOCC3)CCCCC2)cc1 | inactive: -6.19%
34 | O=C(NCC1(N2CCCCC2)CCCCC1)c1cccc([N+](=O)[O-])c1 | inactive: 2.67%
35 | CCN1CCC(Nc2ccc(Cl)cc2)CC1 | inactive: 10.2%
36 | O=c1[nH]c2ccccc2n1C1CCN(C(c2ccccc2OC(F)(F)F)c2nnnn2C2CCCC2)CC1 (stereo not given) | inactive: 2.21%
37 | N#CC1(Nc2ccccc2)CCN(CCc2ccccc2)CC1 | inactive: -0.49%
38 | CN1CCC(Nc2cccc(F)c2)CC1 | inactive: -0.59%
39 | O=C(NCC1(N2CCCCC2)CCCCC1)c1cncc(Br)c1 | inactive: -4.2%
40 | Cc1ccc(C(=O)NCC2(N(C)C)CCCCC2)o1 | inactive: -0.81%
41 | CCCOc1ccc(C(=O)NCC2(N(C)C)CCCCC2)cc1OC | inactive: 2.15%
42 | COc1ccc(C(c2nnnn2C2CCCC2)N2CCC(n3c(=O)[nH]c4ccccc43)CC2)cc1 (stereo not given) | inactive: -0.2%
43 | COc1ccc(CN(CCCl)CCCl)cc1Cl | inactive: 6.38%
44 | COC(=O)C1(Nc2ccccc2)CCN(Cc2ccccc2)CC1 | inactive: -1.13%
45 | CN(C)c1cccc(C(=O)NCC2(N3CCCCC3)CCCCC2)c1 | inactive: -1.21%
46 | CC(C)c1ccc(NC2CCN(C(=O)OC(C)(C)C)CC2)cc1 | inactive: 0.11%
47 | CCCCn1nnnc1C(c1ccnc2ccccc12)N1CCC(n2c(=O)[nH]c3ccccc32)CC1 (stereo not given) | inactive: -10.8%
48 | COc1cc(OC)c(C(=O)NCC2(N(C)C)CCCCC2)cc1OC | inactive: -2.81%
49 | CCC(c1nnnn1C(C)(C)C)N1CCC(n2c(=O)[nH]c3ccccc32)CC1 (stereo not given) | inactive: 0.68%
50 | O=C(NCC1(N2CCOCC2)CCCCC1)c1cc(F)c(F)cc1Cl | inactive: 7.15%
